Data on one substance can be found in US20170065730A1, “COMPOSITION FOR IMAGING ATHEROSCLEROSIS AND METHOD FOR DIAGNOSING ATHEROSCLEROSIS BY USING SAME” (priority 2014, published 2017).

The format of data set [1] is in vitro ADME, human. The procedure: (§1) After adding 2 mL or 5 mL of a physiological saline solution of pertechnetate (^99mTcO^4−) prepared from a Mo-99/Tc-99m generator (Samyoung Unitech) to the kit of Example, reaction was conducted at room temperature for 1-30 minutes. The radioisotope labeling efficiency of technetium was determined by spotting a small amount of the reactant on an ITLC (instant thin layer chromatography) plate and then measuring the distribution of radioactivity using a TLC scanner after developing with physiological saline. The labeled technetium remained at the origin and all other unlabeled technetium moved to the solvent front. The labeling efficiency was 99% or higher. The stability of the labeled ^99mTc-MSA was investigated by measuring radiochemical purity (%) with time when it was kept at room temperature and when it was mixed with human serum and then incubated at 37° C.

Data set [2] in a line: Stability of labeled 99mTc-MSA by radiochemical purity, kept at room temperature. It is filed as physicochemical. To be noted: for radiochemical purity: room temperature. Here is the method:
as §1

Read-outs that look alike come from different tables or passages of the source.

On to “^99mTc-MSA: Tc-99m labeled mannosylated human serum albumin prepared with the rMSA kit”, for which the purity maintained in data set [1] is reported as at least 90%; in data set [2] (kept at room temperature, for 20 hours), at least 90%. Besides, the radiochemical purity in data set [2] (0.5 hr) was determined as 94.5%; in data set [2] (1.0 hr), 96.4%; in data set [2] (2.0 hr), 91.1%; in data set [2] (3.0 hr), 94.0%; in data set [2] (20.0 hr), 91.0%; in data set [2] (24.0 hr), 95.3%.
